Laboratory results from patent EP4722215A1, “AMORPHOUS SUBSTANCE AND CRYSTAL OF DIOXOPIPERIDINE COMPOUND OR PHARMACEUTICALLY ACCEPTABLE SALT THEREOF, PREPARATION METHOD, AND USE” (Jiangsu Hengrui Pharmaceuticals Co., Ltd., priority 2023, dated 2024).

Tests used:
[1] = Pharmacokinetic evaluation in cynomolgus monkeys, intragastric administration, plasma LC/MS/MS; type: in vivo; details: both sexes, cynomolgus monkey, po, i.g., 2.0 mg/kg, read-out: Apparent distribution volume Vz/F
Method: Cynomolgus monkeys were used as test animals.
Eight cynomolgus monkeys (half male and half female, provided by Shanghai Medicilon Inc.) were evenly divided into 2 groups.
Access to food and ad libitum access to water were given 3 h after administration.

in vivo = details: both, beagle, dog, plasma, po, 2 mg/kg

Vd/F [1]: 165 L/kg
Vd/F (in vivo): 278 L/kg
Compound: N#Cc1ccc(O[C@H]2CC[C@H](NC(=O)c3ccc(N4CCC(CN5CCN(c6cc7c(cc6F)C(=O)N(C6CCC(=O)NC6=O)C7=O)CC5)CC4)nn3)CC2)cc1Cl (some centres unmarked) [ARV-110]
